Among the data in patent US5763597A, “Orally active adenosine kinase inhibitors” (priority 1996, dated 1998) are ED50 values, retold here.

Structures are written as SMILES. Some results are limits rather than exact numbers.

The subject of the assay is maximal electroshock seizures (hind limb tonic extension) in male SA rats. Put plainly: Anticonvulsant activity, maximal electroshock (MES) model. The format is in vivo. The following applies: rat, ip; ">5" = HTE inhibited in fewer than 50% of animals at 5 mg/kg screen; ">>" (written >) = no activity, "<" = maximal activity at stated dose.
Take `CCOCc1ccc(Nc2ncnc3c2c(-c2ccccc2)cn3[C@@H]2O[C@H](C)[C@@H](O)[C@H]2O)cc1` [compound 125]: the median effective dose (ED50) (in general, the midpoint of the dose-response relation) was more than 5 mg/kg.

Molecule `C[C@H]1O[C@@H](n2cc(-c3ccccc3)c3c(Nc4ccc(I)cc4)ncnc32)[C@H](O)[C@@H]1O` [compound 128] gave an ED50 of 5 mg/kg.

Consider `C[C@H]1O[C@@H](n2cc(-c3ccccc3)c3c(Nc4ccc(NC(=O)C(F)(F)F)cc4)ncnc32)[C@H](O)[C@@H]1O` [compound 129], for which it took a dose of 5 mg/kg to reach the 50% effect level (ED50).

Turning to `C[C@H]1O[C@@H](n2cc(-c3cccc(N)c3)c3c(Nc4ccc(F)cc4)ncnc32)[C@H](O)[C@@H]1O` [compound 131], the ED50 is more than 5 mg/kg.

As for `C[C@H]1O[C@@H](n2cc(-c3ccc(C#N)cc3)c3c(Nc4ccc(F)cc4)ncnc32)[C@H](O)[C@@H]1O` [compound 132], the ED50 was more than 5 mg/kg.
